Measured values as given in article PMC11745410.

Key:
[1] = target: TAX9-loaded HLA-A*02:01/β2m; experiment: NMR titration
[2] = target: TAX9-loaded HLA-A*02:01/β2m; experiment: SPR

- Kd [1]: 13.9 µM
- fold reduction of KD against TAPBPR^WT [2]: 10 fold
Substance: high-fidelity TAPBPR variant TAPBPR^HiFi (S104F, K211L, R270Q), soluble (natural protein)
